Here are results for one compound from patent US20110010099A1, “Correlation Analysis of Biological Systems” (priority 2005, published 2011).

The test system of this series is liver mRNA transcripts (Enzyme_ABC, Enzyme_DEF). The series is described as follows: Liver mRNA transcript profiling (Affymetrix U34A) in rat hepatotoxicity study. The note with it: Group 3 compared to Group 1.

Take `Cn1c(=O)c2c(ncn2CC2OCCO2)n(C)c1=O` [ABC123]: the “abundance of mRNA transcript for Enzyme_DEF in liver” value is reported as “lower in abundance”.
